Measurements as given in PubChem BioAssay AID720511 (Broad Institute, 2013).
This is a selection; strong and weak results do not stand in their true shares. Active and inactive are the calls of the source.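 The calls were made as follows: active = mean added fluorescence quench of at least 8% versus neutral control, with both replicates also reaching 8%; inconclusive = only one of the mean or replicate conditions met; inactive = mean below 8% and not both replicates reaching 8%.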

experiment: F508del CFTR correction, initial screen, CFBE line, single point (AID 720511); settings: CFBE cells, YFP halide quenching, at 7.58 µM, active compounds read high, % fluorescence drop versus neutral controls, stimulated with forskolin plus potentiator P3;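 also: cells transiently co-express mutant CFTR-F508del with the halide-sensitive YFP; corrector assay measuring rescue of mutant channel to the surface after 24 h compound exposure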

Compound | activity (quench increase)
CCC(=O)N(c1ccccc1)C1(COC)CCN(CCc2cccs2)CC1 | inactive: -0.244%
CCC(=O)N(c1ccccc1)C1(COC)CCN(CCn2nnn(CC)c2=O)CC1 | inactive: -0.513%
